Test results as given in patent publication US9687539B2, “CD4+ T survivin epitopes and uses thereof” (Commissariat a I'Energie Atomique, priority 2005, dated 2017).

Test system: 12 predominant HLA II molecules
Experiment: Binding to the 12 predominant HLA II molecules, summary
Parameters: species or system human

CC(C)C[C@H](NC(=O)[C@H](Cc1ccccc1)NC(=O)[C@@H]1CCCN1C(=O)[C@H](Cc1c[nH]c2ccccc12)NC(=O)[C@H](CC(N)=O)NC(=O)[C@H](CCCCN)NC(=O)[C@H](Cc1ccccc1)NC(=O)[C@@H](NC(=O)[C@@H](N)CO)[C@@H](C)O)C(=O)N[C@@H](CCC(=O)O)C(=O)NCC(=O)N[C@@H](CS)C(=O)N[C@@H](C)C(=O)N[C@@H](CS)C(=O)N[C@H](C(=O)O)[C@@H](C)O [peptide 20-34, S T F K N W P F L E G C A C T]
Affinity for HLA II molecules (class words): good affinity for at least four HLA II molecules
No. of molecules fixed (number of the 12 predominant HLA II molecules bound (IC50 < 1000 nM)): 4
